Compound activity deposited in PubChem BioAssay by Broad Institute.
ARNT-TACC3 inh: disruptors of ARNT/TACC3 protein interaction, primary screen, biochemical, AlphaScreen, single concentration | Transforming acidic coiled-coil-containing protein 3 (Homo sapiens), Q9Y6A5 | AlphaScreen His-ARNT PAS-B/GST-TACC3 binding, luminescence; TACC3 fragment carries E629A point mutation | inhibition, % at 9.99 µM | hit rate 0.66% among 390,000;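 active means mean inhibition of replicates at least 50% and at least half of replicates each reaching 50%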;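 further: 0% = complete ARNT plus TACC3 wells and 100% = ARNT alone without TACC3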
ERp5 block: inhibitors of ERp5-driven insulin aggregation, primary screen, biochemical, turbidity, absorbance 650 nm, single point | 90 min | inhibition, % at 9.99 µM | hit rate 0.05% among 350,000;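 active means mean replicate inhibition above about 25%, with every replicate also reaching it, limit read from the data, passing the limit was not always enough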
FGF22 binding: binders of human FGF22 protein, primary screen, FGF22 synaptogenesis inhibitor project, biophysical, thermal shift, single point; Fibroblast growth factor 22 (Homo sapiens), Q9HCT0; recombinant FGF22 thermal shift, SYPRO orange fluorescence; percent of sucrose octasulfate shift, DMSO zero; activity (Tm shift, normalised), % at 9.99 µM; hit rate 1.5% among 340,000; AID 651658, 2012;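 active means mean Tm shift, scaled 0 neutral to 100 positive control, at about 1.3% or above, every replicate too, limit read from the data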
PDI turbidity: inhibitors of human PDI, primary screen, biochemical, turbidity, single point, plate reader | Protein disulfide-isomerase (Homo sapiens), P07237 | PDI insulin aggregation turbidity, A650, 90 min | inhibition, % at 10 µM | hit rate 0.052% among 350,000 | AID 588391, 2011;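 active means mean inhibition across replicates of 30% or more, whatever share of single replicates reach that level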
PglD DTNB: C. jejuni PglD acetyltransferase inhibitors, primary screen, biochemical, DTNB colorimetric, single point; UDP-N-acetylbacillosamine N-acetyltransferase PglD (Campylobacter jejuni); purified PglD enzyme, DTNB colorimetric CoA detection; inhibition, % at 12.5 µM; hit rate 0.098% among 360,000; in the data active means inhibition above about 16%, passing the limit was not always enough
Yeast UUG start: yeast start codon fidelity modulation | S. cerevisiae UUG-firefly luciferase reporter, luminescence/redox ratio | activity score, % at 18.7 µM | hit rate 0.13% among 350,000 | AID 602363;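 active means replicate mean at a twofold rise or more, about +100% in these data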;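 further: firefly luciferase made from a UUG start codon reports start codon fidelity; reporter light over untreated wells divided by growth signal over untreated wells; some hits fall short of that in this replicate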
Active calls of the source: *. Shown are actives, neighbours in structure and some others; about 1.9% of the full set was active somewhere.

`COc1cccc(S(=O)(=O)N[C@H]2C=C[C@H](CC(=O)NCc3ccc(F)cc3)O[C@H]2CO)c1` gave ARNT-TACC3 inh -20, ERp5 block 10, FGF22 binding 1, PglD DTNB 1 and Yeast UUG start -9.
C[C@H](CO)N1C[C@H](C)[C@H](CN(C)Cc2ccc(C(=O)O)cc2)Oc2ccc(NC(=O)C3CCCCC3)cc2CC1=O was read as ARNT-TACC3 inh -9, ERp5 block -1, FGF22 binding -1, PglD DTNB -3 and Yeast UUG start -13.
`COCC(=O)N1[C@H](C#N)[C@H](c2ccccc2C2=CCCC2)[C@@H]1CO` gave ERp5 block -3 and FGF22 binding 0.
Screening Cc1ccc2c(c1)Oc1ccc(NC(=O)CCl)cc1C(=O)N2 returned ARNT-TACC3 inh 8 and PDI turbidity 92*.
For CC(C)C(=O)Nc1ccc2c(c1)C(=O)N(C)[C@@H]1CC[C@H](CC(=O)O)O[C@H]1CO2 the results were ARNT-TACC3 inh -10, ERp5 block -5, PglD DTNB -2 and Yeast UUG start 1.
Screening COc1cc2c(cc1OC)C(c1ccc3c(c1)OCO3)CC(=O)N2 (centres undefined) returned ARNT-TACC3 inh -1, ERp5 block 4, FGF22 binding 0 and PDI turbidity 5.
For COc1ccc(C2CCc3cc4c(cc3C2=NO)OCO4)cc1OC (centres undefined) the results were ERp5 block -8, FGF22 binding 43*, PDI turbidity -13, PglD DTNB 1 and Yeast UUG start 10.
For C[C@H](NC(=O)[C@@H]1[C@@H](CO)[C@@H]2Cn3c(ccc(C4=CCCC4)c3=O)[C@H]1N2C(=O)C1CC1)c1ccccc1 the results were ERp5 block 4 and FGF22 binding 0.
Screening CC=Cc1ccc2n(c1=O)C[C@@H]1[C@@H](CO)[C@H](C(=O)N(C)C)N(CCC)[C@H]21 (mixture of isomers) returned ERp5 block -1.
Screening O=C([C@H]1[C@H](CO)[C@H]2Cn3c(cccc3=O)[C@H]2N1CCC(F)(F)F)N1CCCCC1 returned ARNT-TACC3 inh active, ERp5 block -5, FGF22 binding 0 and PglD DTNB -1.
For CS(=O)(=O)N1CCN=C1SCc1ccc([N+](=O)[O-])cc1 the results were ERp5 block -4, FGF22 binding 43* and PDI turbidity -2.
`CS(=O)(=O)N1CCN=C1SCc1ccc(Br)cc1` gave ARNT-TACC3 inh -2, ERp5 block -7, FGF22 binding 0, PDI turbidity -1, PglD DTNB 4 and Yeast UUG start -13.
Cc1onc(-c2ccccc2)c1C(=O)NC(=S)NNC(=O)c1ccccc1O was read as ARNT-TACC3 inh 58*, ERp5 block -6, FGF22 binding 1 and PDI turbidity 9.
Screening Cc1onc(-c2ccccc2)c1C(=O)NC(=S)NNC(=O)c1ccc(O)cc1O returned ARNT-TACC3 inh 95* and PDI turbidity 4.
Nc1nc(Sc2ccc([N+](=O)[O-])c3nonc23)c2[nH]cnc2n1 was read as ARNT-TACC3 inh 22*, ERp5 block 8, FGF22 binding 0 and PDI turbidity -32.

Already shown: four of the compounds above.
`COc1cccc(S(=O)(=O)N[C@H]2C=C[C@H](CC(=O)NCc3ccc(F)cc3)O[C@H]2CO)c1` gave ARNT-TACC3 inh -20, ERp5 block 10, FGF22 binding 1, PglD DTNB 1 and Yeast UUG start -9.
C[C@H](CO)N1C[C@H](C)[C@H](CN(C)Cc2ccc(C(=O)O)cc2)Oc2ccc(NC(=O)C3CCCCC3)cc2CC1=O was read as ARNT-TACC3 inh -9, ERp5 block -1, FGF22 binding -1, PglD DTNB -3 and Yeast UUG start -13.
`COCC(=O)N1[C@H](C#N)[C@H](c2ccccc2C2=CCCC2)[C@@H]1CO` gave ERp5 block -3 and FGF22 binding 0.
Screening Cc1ccc2c(c1)Oc1ccc(NC(=O)CCl)cc1C(=O)N2 returned ARNT-TACC3 inh 8 and PDI turbidity 92*.

(further entries)
For S=C(NCc1ccccc1Cl)NC1CCCC1 the results were ERp5 block -5, FGF22 binding 43*, PDI turbidity 5, PglD DTNB -4 and Yeast UUG start -18.
Screening Fc1ccccc1CNC(=S)NC1CCCCC1 returned ARNT-TACC3 inh 2, ERp5 block -2, FGF22 binding 0, PDI turbidity -92, PglD DTNB 0 and Yeast UUG start -21.
`CO[C@H]1CN(C)C(=O)c2cc(NS(=O)(=O)c3ccccc3F)ccc2OC[C@@H](C)NC[C@H]1C` gave ARNT-TACC3 inh -7, ERp5 block -8, FGF22 binding 0, PglD DTNB 0 and Yeast UUG start -12.
Screening COc1ccc(NC(=O)C(CC(=O)O)Cc2ccc(C)cc2)cc1 (centres undefined) returned ARNT-TACC3 inh -8, ERp5 block -2, FGF22 binding 43* and PDI turbidity 3.
For COc1ccc(CC(CC(=O)O)C(=O)Nc2ccc(OC)cc2)cc1 (centres undefined) the results were ARNT-TACC3 inh -2, PDI turbidity 15, PglD DTNB 7 and Yeast UUG start -2.
For COc1ccc2c3c(n(C)c2c1)[C@@H](CO)N(CC1CC1)CC31CCN(Cc2ccc(F)cc2)CC1 the results were ERp5 block 2 and FGF22 binding 0.
Screening Cc1cccc(C)c1Nc1ncnc(N)c1[N+](=O)[O-] returned ARNT-TACC3 inh -28, ERp5 block -1, FGF22 binding 0, PDI turbidity -7, PglD DTNB 8 and Yeast UUG start -10.
For COc1cccc(C(=O)NCC(=O)NNc2ncnc(N)c2[N+](=O)[O-])c1 the results were ARNT-TACC3 inh 15, ERp5 block -1, FGF22 binding 43* and PDI turbidity -4.
`O=C(CN1CCc2ccccc2C1)NC1CCCC1` gave ARNT-TACC3 inh -6, ERp5 block -6, FGF22 binding 43* and PDI turbidity -10.
For CCCNC(=O)Nc1ccc2c(c1)OC[C@H](C)N(Cc1ccncc1)C[C@H](C)[C@H](OC)CN(C)C2=O the results were ERp5 block 12 and FGF22 binding 0.
For Cc1ccc(C(=O)Nc2ccsc2C(=O)O)cc1 the results were ARNT-TACC3 inh 4, ERp5 block -4, FGF22 binding 0 and PDI turbidity 10.
For O=C(Nc1ccsc1C(=O)O)c1ccc(Cl)cc1 the results were ARNT-TACC3 inh active, ERp5 block 2, PDI turbidity 9, PglD DTNB -4 and Yeast UUG start -18.
`CC(C)CC#Cc1cnc2c(c1)C(=O)N([C@H](C)CO)C[C@H](C)[C@H](CN(C)C(=O)c1cnccn1)O2` gave ARNT-TACC3 inh -3, ERp5 block 2, FGF22 binding 0, PglD DTNB -5 and Yeast UUG start 4.
Screening Cc1oc(C(C)(C)C)cc1C(=O)Nc1cccc(/C=C\C(=O)O)c1 returned ARNT-TACC3 inh -2 and PDI turbidity -6.
`Cc1oc(-c2ccccc2)cc1C(=O)Nc1cccc(/C=C\C(=O)O)c1` gave ERp5 block -6, FGF22 binding 44* and PDI turbidity -6.
